In publication PMC5383603 (Journal of Korean Medical Science, 2017):

How the values were obtained:
[1] = system: intragastric pH; assay: 24-hour intragastric pH monitoring after omeprazole by CYP2C19 phenotype; format: in vivo, healthy Korean volunteers; conditions: mean ± SD
[2] = system: CYP2C19; conditions: greater for CYP2C19 than for CYP3A4; cited from earlier work
[3] = multiple dosing, 20 mg oral once daily for 8 days, EM (n = 8)
[4] = multiple dosing, 20 mg oral once daily for 8 days, IM (n = 8)
[5] = multiple dosing, 20 mg oral once daily for 8 days, PM (n = 8)
[6] = single dosing, 20 mg oral, EM (n = 8)
[7] = single dosing, 20 mg oral, IM (n = 8)
[8] = single dosing, 20 mg oral, PM (n = 8)

COc1ccc2[nH]c([S+]([O-])Cc3ncc(C)c(OC)c3C)nc2c1 (stereo not shown) [omeprazole]
% time gastric pH above 4.0 [1, 3]: 42.23 ± 19.03%
Change of mean pH [1, 3]: 1.81 ± 1.02
% time gastric pH above 4.0 [1, 4]: 53.90 ± 12.10%
Change of mean pH [1, 4]: 2.19 ± 0.74
% time gastric pH above 4.0 [1, 5]: 78.99 ± 15.79%
Change of mean pH [1, 5]: 3.45 ± 0.72
% time gastric pH above 4.0 [1, 6]: 19.66 ± 17.07%
Change of mean pH [1, 6]: 0.71 ± 0.78
% time gastric pH above 4.0 [1, 7]: 21.43 ± 7.79%
Change of mean pH [1, 7]: 0.78 ± 0.70
% time gastric pH above 4.0 [1, 8]: 66.83 ± 14.06%
Change of mean pH [1, 8]: 2.84 ± 0.48
affinity for CYP2C19 relative to CYP3A4 [2]: approximately 10 times
